Values of other authors as cited in patent publication US6767992B1, “Method for producing L-prolyl-L-M-sarcolysyl-L-p-fluorophenylalanine and derivatives thereof” (PTC Pharma AG, priority 2001, dated 2004).

System: melanoma cells

L-prolyl-L-m-sarcolysyl-L-p-fluorophenylalanine [PSF]
cytotoxicity compared with peptichemio itself: considerably higher cytotoxicity
